# Results from ChEMBL document CHEMBL1143532 (Bioorg Med Chem Lett, 2005).
# Amino acid sequences for entries named in this document (tags omitted).
# UniProt Q05941, whole entry: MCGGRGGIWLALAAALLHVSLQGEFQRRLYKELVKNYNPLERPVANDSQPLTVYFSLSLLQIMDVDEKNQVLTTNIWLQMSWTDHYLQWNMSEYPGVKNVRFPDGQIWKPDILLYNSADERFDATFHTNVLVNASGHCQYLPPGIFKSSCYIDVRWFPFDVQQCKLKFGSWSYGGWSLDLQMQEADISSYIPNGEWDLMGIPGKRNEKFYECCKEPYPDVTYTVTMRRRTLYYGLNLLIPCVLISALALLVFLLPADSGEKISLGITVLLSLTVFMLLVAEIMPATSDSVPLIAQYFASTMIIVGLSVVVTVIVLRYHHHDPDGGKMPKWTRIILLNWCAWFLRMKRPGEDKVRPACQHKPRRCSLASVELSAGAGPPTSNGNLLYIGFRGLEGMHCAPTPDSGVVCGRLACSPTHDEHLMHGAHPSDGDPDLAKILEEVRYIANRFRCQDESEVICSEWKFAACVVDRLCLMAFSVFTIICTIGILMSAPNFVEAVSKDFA
# Target: Neuronal acetylcholine receptor subunit alpha-7 (Rattus norvegicus, UniProt Q05941)
# Assay: Inhibitory constant against [3H]methyllycaconitine binding towards Nicotinic acetylcholine receptor alpha-7 of rat brain hippocampus
# Format: tissue-based
compound,measurement,value
O=C(NC1CC1c1ccccc1)N[C@@H]1C2CCN(CC2)[C@@H]1Cc1cccnc1 (stereo partly specified),pKi,6.98

# pKi: −log10 of the molar value.
